Measured values taken from patent publication US20230365492A1, “LITHIUM ORGANIC ACID-AMINO ACID SALT, AND CRYSTAL FORM, COMPOSITION AND APPLICATION THEREOF” (ANYU BIOTECHNOLOGY (HANGZHOU) CO., LTD., priority 2020, published 2023).

System: HEK293 cells
Assay: CCK-8 cytotoxicity test on HEK293 cells
Type: cell-based
Settings: 0-50 mM, 12 and 24 hours, absorbance 450 nm
Experimental: The absorbance was read by a microplate reader at 450 nm (results are expressed as mean±standard error).
Under conventional culture conditions, HEK293 cells were treated with lithium isobutyrate (represented by a black dotted line) or a lithium isobutyrate-L-proline salt (represented by a black solid line) with a concentration of 0, 0.7, 1.56, 3.12, 6.25, 12.5, 25 and 50 mM for 12 and 24 hours, and then detected by a CCK-8 test to obtain the cytotoxicity. The absorbance was read by a microplate reader at 450 nm (results are expressed as mean±standard error).

lithium isobutyrate-L-proline salt
cytotoxicity / survival of HEK293 cells (CCK-8): no obvious difference in the survival of the treated cells; also recorded: no significant influence on the survival of HEK293 cells

“Also recorded” adds a separate entry of the source.
